Screens as filed in PubChem.
ClpP mod: qHTS Assay for Activators of ClpP; ATP-dependent Clp protease proteolytic subunit (Bacillus subtilis (strain 168)), P80244; purified B. subtilis ClpP, FRET peptide cleavage, 20 min; Potency, µM (series often up to 57.5 µM), for inactives: at the highest dose activity change, negative = active; hit rate 1.9% among 340,000; active = well fitted falling curve with a large enough effect; inconclusive = small, poorly fitted or top-dose-only effect; inactive = no such curve, though single readings can be large or run the other way; also: the source files actives as falling curves though it sought activators and does not explain the sign; nearly all actives have a fitted effect of over 65% in size
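Purified B. subtilis ClpP, 10 microg/mL final in Tris/HCl pH8 with KCl, BSA, glycerol and Tween-20, cleaved an Abz/nitrotyrosine-quenched decapeptide. Fluorescence (ex 320, em 430) was read at 0 and 20 min at room temperature. Delta was normalized to 5.8 microM ADEP and DMSO/no-enzyme controls.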
PTAP TSG101 blk: blocks PTAP/TSG101 interaction to inhibit HIV-1 budding | Q99816 | Fluorescence polarization, FITC-PTAP peptide / Tsg101 binding | Potency, µM (top dose mostly 115 µM), for inactives: at the top dose activity change, negative = inhibition, hits mostly inhibitors | 340,000 tested, under 10 active | AID 493005; active = well fitted inhibition curve with a large enough effect in the main read-out, with a control signal flat, not every such curve was filed as active; inconclusive = small, poorly fitted or top-dose-only effect, or effect the other way, or a change in a side signal; inactive = no such curve, though single readings can be large or run the other way; also: % of control where 0% means no effect
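Compounds were pin-transferred onto Tsg101 binding domain (10 uM final) in HEPES pH 7.5 buffer, then FITC-PTAP peptide was added at 50 nM final. After 20 min at RT, polarization reported peptide displacement across a qHTS concentration series.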
ALOX12 inh: blocks human arachidonate 12S-lipoxygenase | P18054 | purified 12hLO, xylenol orange hydroperoxide absorbance | Potency, µM (top dose mostly 108 µM), for the others: at the highest dose activity change, negative = inhibition, usual class: inhibitors | hit rate 1.1% among 580,000; also: % is scaled to controls: 0 for no effect and ±100 for the full control effect
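Hydroperoxide product was detected by ferrous iron/xylenol orange as the 573 to 405 nm absorbance ratio. Arachidonic acid at 40 uM (final) was turned over for 30 min at room temperature by 150 nM human 12hLO, pH 7.0 Hepes buffer, after 15 min compound preincubation.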
Rango-impB inh: Rango-importin beta binding inhibition. Potency, µM (highest dose often 92.2 µM), inactives show at the highest dose inhibition of complex formation. AID 540263. hit rate 0.031% among 340,000. Rango CFP/YFP FRET sensor + importin beta, 45 min; calls by dose curve;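 also: 0% = DMSO wells and 100% = buffer wells lacking importin beta; nearly all actives have a fitted effect of over 15% in size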
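Inhibition scored from the CFP 486 nm/YFP 530 nm FRET ratio 45 min after adding 0.125 microM importin beta to 50 nM Rango biosensor preincubated 5 min with compound (room temperature, PBS with DTT, Tween-20, BSA). No-importin wells as positive control.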
Rango release inh: inhibition of RanGTP-driven Rango-importin beta dissociation | hit rate 0.071% among 340,000 | Biochemical FRET Rango-importin beta, RanGTP-induced dissociation | O95149+P62826 | Potency, µM (top dose mostly 46.1 µM), inactives show at the highest dose activity change, negative = inhibition; calls by dose curve; also: % of control where 0% means no effect; nearly all actives have a fitted effect of over 45% in size
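Rango (0.1 uM)–importin beta (0.25 uM) complex; RanGTP-RCC1 trigger; 45 min RT; CFP/YFP FRET read.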
TDP1 block: blocks human tyrosyl-DNA phosphodiesterase 1; Q9NUW8; recombinant TDP1, AlphaScreen DNA substrate cleavage; Potency, µM (titrated, usually from 130 µM), for the others: at the top dose activity change, negative = inhibition, actives largely listed as inhibitors; hit rate 0.28% among 350,000; also: % is scaled to controls: 0 for no effect and ±100 for the full control effect; nearly all actives have a fitted effect of over 40% in size
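Here, a 5' biotin and 3' phosphotyrosine-FITC DNA oligonucleotide reports Tdp1 activity: intact substrate bridges AlphaScreen beads, while cleavage leaves a 3' phosphate and drops signal. All incubations at room temperature.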
* marks the source's active call; other numbers are inactive results; u = inconclusive; x = no result; ! = a repeat was not active; [ ] = another dose, or the depositor's remark. In the library only some 2.4% were active in any assay of this set; here they are far more common. Unless noted, calls follow the shape of the dose curve; as a rule, active = well fitted curve in the direction sought with a large enough effect; inconclusive = small, poorly fitted or top-dose-only effect, or another doubt; inactive = no such curve, though single readings can be large; an effect the other way counts as inactive or inconclusive. Potency is read from the fitted curve at half-maximal effect.

The line under a structure holds: PTAP TSG101 blk, ClpP mod, TDP1 block, Rango-impB inh, Rango release inh, ALOX12 inh
1	Cc1cc(C)cc(NC(=S)/N=C(\N)Nc2nc(C)c3ccccc3n2)c1
 : 1.8%, -7.2%, 5.3%, -0.3%, 3.7%, 44.7µM*
2	Cc1cccc(NC(=S)/N=C(\N)Nc2nc(C)c3ccc(C)cc3n2)c1
 : -0.9%, 0.6%, 7.4%, -0.4%, 0.9%, u
3	COc1ccc(N2CC(c3noc(-c4cc(Cl)ccc4OC)n3)CC2=O)cc1 (stereo not drawn)
 : x, x, x, x, x, 5.7%
4	CNC(=S)NNC(=O)c1ccc(Br)cc1
 : x, x, x, x, x, 47.4%
5	COc1ccc(CCNC(=O)CN(c2ccc(Br)cc2)S(C)(=O)=O)cc1OC
 : x, x, x, x, x, -27.6%
6	Nc1ccccc1C1CC1
 : x, x, x, x, x, 7.08µM*
7	CCC(C)/C=C/C1=CC2=C(Cl)C(=O)C3(C)OC(=O)C(C(=O)C(C)C(C)O)C3C2=CO1 (stereo not drawn)
 : -3.3%, 22.4µM*, u, u, u, u
8	CCCCCCSc1cc(-c2nc3cc(C)ccn3c2NCCCC)ccc1OC
 : 0.5%, 15.8µM*, 1.7%, u, -10.5%, u
9	O=C(Cn1ccn2nc(-c3ccccc3)c(CO)c2c1=O)NC1CCCC1
 : x, x, x, x, x, 50.7%
10	CNc1ncccc1C(=O)N1CCc2nc(-c3cn[nH]c3)[nH]c2C1
 : x, x, x, x, x, 12.2%
11	CN(C)CCCn1c(-c2ccc(COc3ccc(Br)cc3)o2)n[nH]c1=S
 : x, x, x, x, x, 14.1µM*
12	Cc1cccnc1NC(=S)Nc1ccc(F)cc1F
 : 1.6%, x, 2.7%, 1.0%, -0.4%, 15.8µM*
13	Cc1ccc(C)c(NC(=S)Nc2ncccc2C)c1
 : 2.9%, x, 5.4%, u, -8.9%, 28.2µM*
14	Cc1ccc(C)c(NC(=O)c2ccccn2)c1
 : 0.6%, 0.1%, 6.9%, 2.4%, 22.3%, -6.6%
15	CCOCCCNC(=O)c1noc(-c2ccc[nH]c2=O)n1
 : x, x, x, x, x, 0.6%

Single values from the entries so far:
`Cc1cc(C)cc(NC(=S)/N=C(\N)Nc2nc(C)c3ccccc3n2)c1` @ ALOX12 inh: 44.7µM*
`CCOCCCNC(=O)c1noc(-c2ccc[nH]c2=O)n1` @ ALOX12 inh: 0.6%
`O=C(Cn1ccn2nc(-c3ccccc3)c(CO)c2c1=O)NC1CCCC1` @ ALOX12 inh: 50.7%

Later entries.
The line under a structure holds: PTAP TSG101 blk, ClpP mod, TDP1 block, Rango-impB inh, Rango release inh, ALOX12 inh
16	COc1cccc(-c2cncnc2NCc2ccccc2OC)c1
 : x, x, x, x, x, -29.7%
17	COc1cccc(-c2cncnc2NCc2ccc(OC)cc2OC)c1
 : x, x, 7.7%[56.1 µM], x, x, 12.6µM*
18	Cc1cc(N)n2ncc(-c3ccc(Cl)cc3)c2n1
 : -12.9%, 22.4µM*, 5.2%, -3.1%, 3.1%, 17.0%
19	Cc1cc(N)n2ncc(-c3ccc(F)cc3)c2n1
 : -5.1%, -15.2%, -2.0%, 10.5%, 15.3%, -14.2%
20	O=C1N(c2ccccc2)C[C@H]2CN(CC3CC3)CCN12
 : x, x, x, x, x, -3.5%[176 µM]
21	Cc1ccc(CN(Cc2cc3cccc(C)c3[nH]c2=O)C(=S)NCCCN(C)C)cc1
 : -3.7%, 22.4µM*, 4.8%, -0.3%, 17.6%, -29.8%
22	Cc1ccc(/C=N/Nc2nc(Nc3ccccc3)nc(N3CCCCC3)n2)c(C)c1
 : x, x, x, x, x, -4.1%
23	CN1CCN(Cc2nc3ccccc3c(=O)n2Cc2nc(-c3ccc([N+](=O)[O-])cc3)cs2)CC1
 : -8.7%, 1.2%, 5.5%, -0.6%, 1.4%, 44.7µM*
24	CN(C)Cc1nc2ccccc2c(=O)n1Cc1nc(-c2cccc([N+](=O)[O-])c2)cs1
 : -9.6%, x, 8.9%, -2.2%, 26.9%, 2.6%
25	CCN1C(=O)C2CC3(CCN(C(=O)C4CCCCC4)CC3)CN2C1=O (stereo not drawn)
 : x, x, x, x, x, 13.6%
26	Cc1cccc(C)c1NC(=O)Cn1cc(S(=O)(=O)Cc2ccc(F)cc2)c2ccccc21
 : x, -5.2%, -11.2%, x, x, 50.1µM*
27	Cc1ccc(NC(=O)Cn2cc(S(=O)(=O)Cc3ccc(F)cc3)c3ccccc32)cc1Cl
 : x, -2.9%, -2.5%, x, x, 10µM*
28	Cc1ccc(NC(=O)Cn2cc(S(=O)(=O)Cc3cccc(Cl)c3)c3ccccc32)cc1C
 : x, -5.3%, 6.2%, x, x, u
29	Cc1cc(C)c(NC(=O)Cn2cc(S(=O)(=O)Cc3ccccc3F)c3ccccc32)c(C)c1
 : x, -5.9%, -7.5%, x, x, u
30	Cc1nc(SCC(=O)NCCc2ccccc2)nc(C)c1C
 : -4.8%, 15.8µM*, 3.8%, -3.7%, -7.1%, -3.7%
31	CC1(OC(=O)c2ccco2)C(=O)C=C2C=C(C3CC3)OC=C2C1=O (stereo not drawn)
 : -7.6%, 1.1%, 5.0%, u, u, 44.7µM*
32	CC1(OC(=O)c2cccs2)C(=O)C=C2C=C(c3ccsc3)OC=C2C1=O (stereo not drawn)
 : x, x, 4.4%, x, x, x
33	CCCCC1=CC2=CC(=O)C(C)(OC(=O)C3CCCC3)C(=O)C2=CO1 (stereo not drawn)
 : -1.8%, 6.7%, 3.7%, u, u, 15.8µM*
34	CC1(OC(=O)C2CCCC2)C(=O)C=C2C=C(c3ccsc3)OC=C2C1=O (stereo not drawn)
 : -8.7%, 1.4%, -6.9%, u, -21.0%, 7.94µM*
35	CC(C)n1nc(OC(C)(C)C(=O)NCc2cnccn2)c2cc(CN3CCOCC3)ccc21
 : x, x, x, x, x, 8.5%
36	CCN1CCN(CCCN2CC3(CCN(C(=O)CN)CC3)OC2=O)CC1
 : x, x, x, x, x, 12.8%
37	COc1ccc(CN2C(=O)CO[C@H]3CN(CC4CC4)C[C@H]32)cc1
 : x, x, x, x, x, 7.0%[176 µM]
38	COc1ccc(CN2C(=O)CO[C@H]3CN(Cc4c[nH]c5ccccc45)C[C@H]32)cc1
 : x, x, x, x, x, 39.8µM*
39	Cc1[nH]c2ccccc2c1CCN(Cc1ccncc1)C(=S)NC(C)(C)C
 : x, x, x, x, x, -3.7%
40	O=C(OCCOc1cccc(Br)c1)c1ccccc1C(=O)c1ccc(Cl)cc1
 : x, x, x, x, x, 1.8%
41	COc1cccc(NS(=O)(=O)c2ccc3c(c2)C2C=CCC2C(c2ccc(C(=O)O)cc2)N3)c1 (stereo not drawn)
 : -12.4%, 0.6%, 5.3%, u, -19.4%, 12.6µM*
42	COc1c(C)c2c(c(O)c1CC=C(C)CCC(=O)O)C(=O)OC2
 : x, x, x, x, x, 179.2%
43	Cc1ccccc1C(=O)N1CC(=O)Nc2ccc(F)cc2C1c1ccc(F)cc1 (stereo not drawn)
 : -2.6%, 31.6µM*, x, 0.3%, 2.7%, u
44	CCCCCOc1ccc(OC(=O)c2ccc(-c3ccc(CC)cn3)cc2)cc1
 : x, x, x, x, x, -6.9%
45	CC(OC(=O)/C=C/c1cccc2cccnc12)C(=O)NC1(C#N)CCCCC1 (stereo not drawn)
 : x, x, x, x, x, -50.2%

Three entries from above, in transposed form.
32) CC1(OC(=O)c2cccs2)C(=O)C=C2C=C(c3ccsc3)OC=C2C1=O (stereo not drawn)
37) COc1ccc(CN2C(=O)CO[C@H]3CN(CC4CC4)C[C@H]32)cc1
33) CCCCC1=CC2=CC(=O)C(C)(OC(=O)C3CCCC3)C(=O)C2=CO1 (stereo not drawn)

| Assay by compound | 32 | 37 | 33 |
| --- | --- | --- | --- |
| PTAP TSG101 blk | x | x | -1.8% |
| ClpP mod | x | x | 6.7% |
| TDP1 block | 4.4% | x | 3.7% |
| Rango-impB inh | x | x | u |
| Rango release inh | x | x | u |
| ALOX12 inh | x | 7.0%[176 µM] | 15.8µM* |

Further entries
The line under a structure holds: PTAP TSG101 blk, ClpP mod, TDP1 block, Rango-impB inh, Rango release inh, ALOX12 inh
46	O=C(COc1nnc2ccccn12)N1CCN(S(=O)(=O)c2ccccc2)CC1
 : -4.6%, 31.6µM*, x, 3.5%, -12.8%, -0.7%
47	CCCCCCCCCCCCCCCC[N+](C)(C)CCN(Cc1ccc(OC)cc1)c1ncccn1
 : 0.8%, -8.7%, 13.3%[21 µM], 65.1µM*, 5.9%, u
48	C[C@@H](NCCCc1cccc(C(F)(F)F)c1)c1cccc2ccccc12
 : x, 1.4%, x, x, x, 8.91µM*!
49	CNCc1cccc(C(F)(F)F)c1
 : x, x, x, x, x, -0.4%[12.5 µM]
50	COc1ccc([C@H]2C[C@@H](O)[C@@H](O)[C@@H]2NC(=O)c2nc3ccccc3s2)cc1
 : x, x, x, x, x, 8.1%[176 µM]
